From ChEMBL document CHEMBL3227956 (J Med Chem, 1979)

Assay: Therapeutic index, ratio of LD50 for mouse allografted with mouse ADJ/PC6 cells to ED90 for mouse ADJ/PC6 cells allografted in mouse

Compound	TI
O=P1(N(CCCl)CCCl)NCCC(C(F)(F)F)O1 (stereo unspecified)	29
C[C@H]1CCN[P@@+]([O-])(N(CCCl)CCCl)O1	42
C[C@@H]1CCN[P@@+]([O-])(N(CCCl)CCCl)O1	56
C[C@H]1CCO[P@+]([O-])(N(CCCl)CCCl)N1	51
O=P1(N(CCCl)CCCl)NCC(Br)CO1 (stereo unspecified)	25
C[C@@H]1CCO[P@+]([O-])(N(CCCl)CCCl)N1	57
